{"sequences": {"note": "Chains of the proteins cited; added tags and fusions are not shown.", "UniProt P25100, whole entry": "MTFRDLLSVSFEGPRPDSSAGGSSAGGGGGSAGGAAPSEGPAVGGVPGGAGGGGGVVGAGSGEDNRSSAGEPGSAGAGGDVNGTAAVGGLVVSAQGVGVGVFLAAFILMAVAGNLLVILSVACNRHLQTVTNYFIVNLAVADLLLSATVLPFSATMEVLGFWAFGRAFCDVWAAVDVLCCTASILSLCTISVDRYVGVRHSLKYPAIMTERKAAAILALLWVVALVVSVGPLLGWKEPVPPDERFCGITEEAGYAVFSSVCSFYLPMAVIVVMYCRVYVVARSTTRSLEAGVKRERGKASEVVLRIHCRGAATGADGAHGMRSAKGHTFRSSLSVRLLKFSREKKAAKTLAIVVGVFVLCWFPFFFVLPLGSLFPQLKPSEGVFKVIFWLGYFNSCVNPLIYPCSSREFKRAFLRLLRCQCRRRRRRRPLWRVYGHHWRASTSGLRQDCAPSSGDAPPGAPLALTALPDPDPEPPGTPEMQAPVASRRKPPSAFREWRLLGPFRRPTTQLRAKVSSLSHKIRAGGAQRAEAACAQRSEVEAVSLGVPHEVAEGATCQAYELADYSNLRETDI", "UniProt P35368, whole entry": "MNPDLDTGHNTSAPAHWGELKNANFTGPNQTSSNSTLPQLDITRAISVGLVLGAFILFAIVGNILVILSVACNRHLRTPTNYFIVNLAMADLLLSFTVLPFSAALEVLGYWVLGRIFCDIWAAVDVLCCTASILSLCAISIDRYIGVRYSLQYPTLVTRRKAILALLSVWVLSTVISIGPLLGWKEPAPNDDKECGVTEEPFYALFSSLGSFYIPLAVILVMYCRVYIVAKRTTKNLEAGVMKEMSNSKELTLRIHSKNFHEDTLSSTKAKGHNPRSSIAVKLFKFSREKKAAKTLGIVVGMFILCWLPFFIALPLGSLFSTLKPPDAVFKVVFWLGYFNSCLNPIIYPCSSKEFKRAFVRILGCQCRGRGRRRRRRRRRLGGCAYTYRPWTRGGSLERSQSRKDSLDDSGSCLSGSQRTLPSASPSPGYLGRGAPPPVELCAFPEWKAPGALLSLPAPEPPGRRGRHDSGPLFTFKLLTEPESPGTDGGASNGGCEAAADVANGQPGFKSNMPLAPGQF"}, "source": "paper PMC6270864", "about": "“Identification of Two Novel α1-AR Agonists Using a High-Throughput Screening Model” (Molecules, 2014)", "key": {"[1]": {"test_system": "α1-ARs (α1A, α1B, and α1D)", "experiment": "Dual-luciferase CRE reporter HTS assay, agonist mode, summary over subtypes", "type": "cell-based, human", "procedure": "(§1) HEK293 cells were plated at a density of 10^5 […] in 96-well plates in 100 μL of DMEM basic medium containing 10% fetal bovine serum, 100 U/mL penicillin, and 0.1 mg/mL streptomycin. After overnight incubation, human ADRA1-expression vectors, namely, ADRA1A, ADRA1B, and ADRA1D, were co-transfected with reporter vectors (CRE, SRE, AP1, NFAT, and NF-кB) and pGL4.74 [hRluc/TK] (included as a control for transfection efficiency) using Lipofectamine 2000 transfection reagent (Invitrogen Life Technologies, Carlsbad, CA, USA). The medium was removed after 4 h and replaced with high-glucose DMEM for 18 h. Cells were then treated with agonists (at concentrations of 0.01–20 μM) and incubated for 8 h.\n(§2) Firefly and Renilla luciferase activities, which are indicated as RLUs, were determined using Dual-Glo luciferase assay kits (Promega) according to the manufacturer’s instructions. RLUs were measured using a luminometer (GloMaxTM 96-Microplate Luminometer, Promega) and are reported as the mean ± SEM of three individual experiments. For agonists, fold of induction = RLUinduced/RLUuninduced. For antagonists, % of control = 100 × RLU (agonist + antagonist)/RLU(agonist alone). […] The pKB of the antagonist was calculated by plotting log (dose ratio–1) against the antagonist dose (μM) and subjecting the data to Schild regression, where the intercept of the x-axis represents the pKB."}, "[2]": {"biological_target": "T1, human α1A-adrenoceptor (ADRA1A) expressed in HEK293 cells (Homo sapiens, UniProt P35348)", "T1 construct": "eGFP; host or cells: HEK293 (transient, Lipofectamine 2000)", "T1 sequence (P35348 1-466)": "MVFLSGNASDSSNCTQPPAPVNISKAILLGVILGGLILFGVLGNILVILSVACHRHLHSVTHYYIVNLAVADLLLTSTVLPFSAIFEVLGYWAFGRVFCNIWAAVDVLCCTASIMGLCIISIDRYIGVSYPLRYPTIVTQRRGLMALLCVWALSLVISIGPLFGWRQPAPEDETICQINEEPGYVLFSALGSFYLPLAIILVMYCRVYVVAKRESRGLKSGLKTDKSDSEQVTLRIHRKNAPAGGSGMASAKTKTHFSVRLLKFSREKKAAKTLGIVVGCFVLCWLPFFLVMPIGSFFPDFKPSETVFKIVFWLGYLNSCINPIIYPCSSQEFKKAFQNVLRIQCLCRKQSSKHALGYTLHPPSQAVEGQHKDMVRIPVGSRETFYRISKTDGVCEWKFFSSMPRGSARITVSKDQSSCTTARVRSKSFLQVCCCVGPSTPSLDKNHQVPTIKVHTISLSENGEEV", "experiment": "Dual-luciferase CRE reporter HTS assay, inhibition of PE-induced CRE activation (RIP)", "type": "cell-based", "conditions": "relative inhibitory potency = (RLU PE alone − RLU PE+antagonist)/RLU PE alone", "procedure": "(§3) Furthermore, the relative inhibitory potency (RIP) could be used to improve the readability of the results. Which was determined relative to that of PE-induced group ([…]), and calculated using the following formula [15]: RIP = (RLUPE alone − RLUPE+antagonist)/RLUPE alone(1)\nas §1\nas §2, with “alone). All RLUs were normalized against firefly RLUs/Renilla RLUs.” for “alone).”"}, "[3]": {"biological_target": "T2, human α1D-adrenoceptor (ADRA1D) expressed in HEK293 cells (Homo sapiens, UniProt P25100)", "T2 construct": "eGFP; host or cells: HEK293 (transient, Lipofectamine 2000)", "experiment": "Dual-luciferase CRE reporter HTS assay, inhibition of PE-induced CRE activation (RIP)", "type": "cell-based", "conditions": "relative inhibitory potency = (RLU PE alone − RLU PE+antagonist)/RLU PE alone", "procedure": "as §3, §1\nas §2, with “alone). All RLUs were normalized against firefly RLUs/Renilla RLUs.” for “alone).”"}, "[4]": {"biological_target": "T3, human α1B-adrenoceptor (ADRA1B) expressed in HEK293 cells (Homo sapiens, UniProt P35368)", "T3 construct": "eGFP; host or cells: HEK293 (transient, Lipofectamine 2000)", "experiment": "Dual-luciferase CRE reporter HTS assay, inhibition of PE-induced CRE activation (RIP)", "type": "cell-based", "conditions": "relative inhibitory potency = (RLU PE alone − RLU PE+antagonist)/RLU PE alone", "procedure": "as §3, §1\nas §2, with “alone). All RLUs were normalized against firefly RLUs/Renilla RLUs.” for “alone).”"}, "[5]": {"test_system": "α1-ARs (α1A, α1B, α1D)", "conditions": "α1-AR subtype selectivity, cited from earlier work"}}, "data": [{"smiles": "Cc1ccc(S(=O)(=O)OCCc2ccc(COc3ccc4c(c3)OCO4)cc2)cc1", "note": "[CHK3]", "values": [{"measurement": "subtype selectivity in the HTS assay", "setting": "[1]", "result": "did not display significant subtype selectivity"}]}, {"smiles": "COc1cc2nc(N3CCN(C(=O)c4ccco4)CC3)nc(N)c2cc1OC", "note": "[Prazosin, prazosin]", "values": [{"measurement": "RIP Values (Mean ± S.E.M, n = 4) α1A", "setting": "[2]", "result": "0.91 ± 0.02"}, {"measurement": "RIP Values (Mean ± S.E.M, n = 4) α1D", "setting": "[3]", "result": "0.39 ± 0.11"}, {"measurement": "RIP Values (Mean ± S.E.M, n = 4) α1B", "setting": "[4]", "result": "0.92 ± 0.01"}, {"measurement": "Reported Selectivity", "setting": "[5]", "result": "Nonselective [16]"}, {"measurement": "Reported Selectivity (Table S1)", "setting": "[5]; ref 1 (supplement)", "result": "Nonselective"}]}]}
